Assay results from PubChem BioAssay AID651647 (Sanford-Burnham Center for Chemical Genomics, 2012).
This is a selection; strong and weak results do not stand in their true shares. The source made the active and inactive calls.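 Rule for the calls: active = GFP/RFP ratio change of at least 30% with cell ATP level not reduced by more than half and red fluorescence within 50% of control; inactive = the rest, inconclusive results apart.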

The compounds below were run against Matrix metalloproteinase-14 (Homo sapiens) (UniProt P50281) (assay: blockers of MT1-MMP proenzyme processing, primary screen, HT1080 RFP-PRO-GFP cells, GFP/RFP fluorescence (AID 651647)). Details: overnight, at 20 µM, hits give high values, percent of plate control window, DMSO zero.
Outline: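 Assay system: HT1080 RFP-PRO-GFP cells | Dosing: 20 µM single dose, 1% DMSO | Incubation: Cells overnight before dosing, compound overnight, 37 °C, 5% CO2 | Evaluation: GFP/RFP fluorescence ratio | Control set: DMSO-only wells and HT1080 RFP-L50D-GFP cell wells as references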

| SMILES | GFP/RFP ratio change |
| --- | --- |
| N#CC1(Nc2ccccc2)CCN(CCc2ccccc2)CC1 | inactive: 0.805% |
| O=c1[nH]c2ccccc2n1C1CCN(C(c2ccccc2OC(F)(F)F)c2nnnn2C2CCCC2)CC1 (stereo not given) | inactive: 1.76% |
| CCN1CCC(Nc2ccc(Cl)cc2)CC1 | inactive: -1.24% |
| CSc1ccc(C(=O)NCC2(N3CCOCC3)CCCCC2)cc1 | inactive: 2.2% |
| O=C(NCC1(N2CCCCC2)CCCCC1)c1cccc([N+](=O)[O-])c1 | inactive: -0.174% |
| O=C(NCC1(N2CCCCC2)CCCCC1)c1ccc(OC(F)F)cc1 | inactive: 0.487% |
| CC(C)(C)n1nnnc1C(c1ccccc1OC(F)(F)F)N1CCC(n2c(=O)[nH]c3ccccc32)CC1 (stereo not given) | inactive: 0.539% |
| COc1cc(C(=O)NCC2(N3CCCCC3)CCCCC2)ccc1OC(F)F | inactive: 0.0548% |
| O=C(NCC1(N2CCOCC2)CCCCC1)c1cc(=O)[nH]c2ccccc12 | inactive: -2.76% |
| CCCCn1nnnc1C(c1cccc2ccccc12)N1CCC(n2c(=O)[nH]c3ccccc32)CC1 (stereo not given) | inactive: 6.41% |
| CN1CCN(CCOC(=O)C(O)(c2ccccc2)c2ccccc2)CC1 | inactive: -1.1% |
| COc1ccc(NC2CCN(C(=O)OC(C)(C)C)CC2)cc1 | inactive: 4.1% |
| CC(C)c1ccc(C(=O)NCC2(N3CCOCC3)CCCCC2)cc1 | inactive: -1.07% |
| O=C(NCC1(N2CCCCC2)CCCCC1)c1cccc(C(F)(F)F)c1 | inactive: 2.64% |
| CCC(c1nnnn1C(C)(C)C)N1CCC(n2c(=O)[nH]c3ccccc32)CC1 (stereo not given) | inactive: -2.13% |
| O=C(NCC1(N2CCOCC2)CCCCC1)c1cc(F)c(F)cc1Cl | inactive: 2.82% |
| COc1cc(OC)c(C(=O)NCC2(N(C)C)CCCCC2)cc1OC | inactive: 3.24% |
| CCCCn1nnnc1C(c1ccnc2ccccc12)N1CCC(n2c(=O)[nH]c3ccccc32)CC1 (stereo not given) | inactive: 1.96% |
| CC(C)c1ccc(NC2CCN(C(=O)OC(C)(C)C)CC2)cc1 | inactive: -6.52% |
| CCCCn1nnnc1C(c1ccccc1OC(F)(F)F)N1CCC(n2c(=O)[nH]c3ccccc32)CC1 (stereo not given) | inactive: -3.66% |

| SMILES | GFP/RFP ratio change |
| --- | --- |
| CN(C)c1cccc(C(=O)NCC2(N3CCCCC3)CCCCC2)c1 | inactive: 0.933% |
| COc1ccc(CN(CCCl)CCCl)cc1Cl | inactive: 3.05% |
| COc1ccc(C(c2nnnn2C2CCCC2)N2CCC(n3c(=O)[nH]c4ccccc43)CC2)cc1 (stereo not given) | inactive: 4.2% |
| CCCOc1ccc(C(=O)NCC2(N(C)C)CCCCC2)cc1OC | inactive: 5.2% |
| Cc1ccc(C(=O)NCC2(N(C)C)CCCCC2)o1 | inactive: 3.72% |
| O=C(NCC1(N2CCCCC2)CCCCC1)c1cncc(Br)c1 | inactive: -1.87% |
| CN1CCC(Nc2cccc(F)c2)CC1 | inactive: 0.176% |
| Cc1cccc(NC2(C#N)CCN(Cc3ccccc3)CC2)c1 | inactive: -0.542% |
| CSc1ccccc1C(=O)NCC1(N2CCCCC2)CCCCC1 | inactive: -1.12% |
| CCC(c1nnnn1C1CCCC1)N1CCC(n2c(=O)[nH]c3ccccc32)CC1 (stereo not given) | inactive: 2.45% |
| COc1ccc(C(=O)NCC2(N3CCCCC3)CCCCC2)c(OC)c1OC | inactive: 0.404% |
| CC(C)(C)OC(=O)N1CCC(N(C(=O)c2ccccc2)c2ccc(F)cc2)CC1 | inactive: -0.243% |
| COc1ccc(C(=O)NCC2(N3CCCCC3)CCCCC2)cc1 | inactive: 0.835% |
| CCCCn1nnnc1C(c1cccs1)N1CCC(n2c(=O)[nH]c3ccccc32)CC1 (stereo not given) | inactive: 8.27% |
| CCCCn1nnnc1C(CC)N1CCC(n2c(=O)[nH]c3ccccc32)CC1 (stereo not given) | inactive: -1.69% |
| O=C(NCC1(N2CCCCC2)CCCCC1)c1cccs1 | inactive: 3.94% |
| O=C(NCC1(N2CCCCC2)CCCCC1)c1ccc(=O)[nH]c1 | inactive: -3.78% |
| COc1ccc(Cl)cc1C(=O)NCC1(N2CCOCC2)CCCCC1 | inactive: 0.946% |
| O=C(OC1CN2CCC1CC2)C1c2ccccc2Oc2ccccc21 (stereo not given) | inactive: -25.1% |
| O=c1[nH]c2ccccc2n1C1CCN(C(c2cc3ccccc3o2)c2nnnn2C2CCCCC2)CC1 (stereo not given) | inactive: -9.14% |

| SMILES | GFP/RFP ratio change |
| --- | --- |
| N#CC1(Nc2ccccc2)CCN(Cc2ccccc2)CC1 | inactive: 1.29% |
| O=C(NCC1(N2CCCCC2)CCCCC1)c1ccc(Cl)s1 | inactive: -2.65% |
| CCCCn1nnnc1C(c1ccc(OC)cc1)N1CCC(n2c(=O)[nH]c3ccccc32)CC1 (stereo not given) | inactive: -0.71% |
| CCOC(=O)N1CCC(Nc2ccc(OC)cc2)CC1 | inactive: -0.915% |
| Cc1cc(C)cc(N(C(=O)c2ccccc2)C2CCN(C(=O)OC(C)(C)C)CC2)c1 | inactive: -4.27% |
| O=c1[nH]c2ccccc2n1C1CCN(C(c2ccccc2OC(F)(F)F)c2nnnn2C2CCCCC2)CC1 (stereo not given) | inactive: 0.558% |
| O=C(NCC1(N2CCCCC2)CCCCC1)c1ccc(Cl)nc1 | inactive: -0.0698% |
| O=C(NCC1(N2CCOCC2)CCCCC1)c1cc2ccccc2o1 | inactive: 0.929% |
| COc1ccc(NC2CCN(CCc3ccccc3)CC2)c(OC)c1 | inactive: 5.54% |
| CCOC(=O)N1CCC(Nc2ccc(F)cc2)CC1 | inactive: 3.07% |
| O=C(NCC1(N2CCCCC2)CCCCC1)c1ccc(F)cc1 | inactive: -5.76% |
| O=P1(N(CCCl)CCCl)SCCCS1 | inactive: 0.524% |
| CCCCn1nnnc1C(c1cc2ccccc2o1)N1CCC(n2c(=O)[nH]c3ccccc32)CC1 (stereo not given) | inactive: 4.39% |
| CCCCOc1ccc(C(=O)NCC2(N3CCOCC3)CCCCC2)cc1 | inactive: 4.69% |
| O=C1CCN(Cc2ccccc2)CC1 | inactive: -1.48% |
| CC(C)(C)n1nnnc1C(c1ccccc1)N1CCC(n2c(=O)[nH]c3ccccc32)CC1 (stereo not given) | inactive: -0.931% |
| CCOc1ccc(C)cc1CN(CCCl)CCCl | inactive: -0.382% |
| COc1cc(C(=O)NCC2(N(C)C)CCCCC2)ccc1OC(F)F | inactive: 1.87% |
| CCOC(=O)N1CCC(Nc2cccc(C)c2)CC1 | inactive: 0.573% |
| O=c1[nH]c2ccccc2n1C1CCN(C(c2cccc3ccccc23)c2nnnn2C2CCCC2)CC1 (stereo not given) | inactive: -0.28% |
